The values below are quoted from earlier work in patent publication US9241952B2, “Method of treating type II diabetes, hyperglycemia or hypoglycemia by administering a synergistic combination of a sulphonylurea and inulin” (OZSTAR THERAPEUTICS PTY LTD, priority 2010, dated 2016).

For the data set the following is noted: insulin-treated patients; cited from earlier work.

For the substance insulin, the weight gain is ~3.5 kg.
